Earlier results as cited in patent US5593975A, “Adenosine derivatives having A2 agonist activity” (Schering Corporation, priority 1992, dated 1997).

Key:
Details in all cases: background, literature
adenosine receptors = tested on: adenosine receptors
A2 receptor = tested on: A2 receptor
A1 receptor = tested on: A1 receptor

CCNC(=O)[C@H]1O[C@@H](n2cnc3c(N)ncnc32)[C@H](O)[C@@H]1O [NECA, adenosine-5'-N-ethyluronamide]
selectivity for the adenosine receptors (adenosine receptors): lacks selectivity for the adenosine receptors
activity on the A2 receptor (A2 receptor): having activity on the A2 receptor
activity on the A1 receptor (A1 receptor): also active on the A1 receptor
